Chains of the proteins cited; added tags and fusions are not shown.
UniProt Q3SYC2, whole entry: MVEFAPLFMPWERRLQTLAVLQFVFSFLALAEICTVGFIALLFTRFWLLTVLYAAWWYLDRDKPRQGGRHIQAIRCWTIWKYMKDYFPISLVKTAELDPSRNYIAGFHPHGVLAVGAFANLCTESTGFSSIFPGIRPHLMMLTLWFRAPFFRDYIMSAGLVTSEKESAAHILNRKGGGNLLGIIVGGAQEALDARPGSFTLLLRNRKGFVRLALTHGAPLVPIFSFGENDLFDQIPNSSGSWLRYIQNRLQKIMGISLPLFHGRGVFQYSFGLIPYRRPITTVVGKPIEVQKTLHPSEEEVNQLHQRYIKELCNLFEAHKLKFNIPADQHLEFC

According to US10335401B2, “Non-aromatic heterocyclic derivative having MGAT2 inhibitory activity” (Shionogi & Co., Ltd., priority 2015, dated 2019):

Target: recombinant human MGAT2 (Homo sapiens (Human), UniProt Q3SYC2)
Assay: Measurement of human MGAT2 inhibitory activity
Conditions: recombinant human MGAT2 membrane fraction (Sf-9); 2-Oleoylglycerol and Oleoyl-CoA substrates; 1 hour at room temperature; Diolein detected by RapidFire Q-TOF MS

IC50: 7.7 nM
Structure (SMILES): CS(=O)(=O)CC(=O)NCC1=C(c2ccc(OC(F)F)cn2)C[C@](c2ccc(OCCCC(F)(F)F)nc2)(C(F)(F)F)NC1=O
